The entries are a selection whose mix differs from that of the whole data set. The source made the active and inactive calls. No stated cut-off is given here; in the data, active means activity change below about -65%; inconclusive means mostly about -30% to -63%; inactive means weaker than that.
tested on: CtBP / adenovirus E1A interaction (AlphaScreen); test: qHTS Assay for Inhibitors of the CtBP/E1A Interaction; details: AlphaScreen GST-E1A/His-CtBP binding, 1536-well; stronger effect = lower value
Excerpt: Carboxyl-terminal binding protein (CtBP) is a co-repressor for many transcription factors. […] Our studies have shown that CtBP is overexpressed in multiple human cancers, including lung, breast, and head and neck cancers. In particular, it is over-expressed in 50% of primary lung cancer and 90% of metastatic lesions. CtBP suppresses epithelial-specific genes as well as genes critical for apoptosis, providing the underlying molecular mechanism for its role in tumorigenesis. […] Based on the above data, we hypothesize that 1) CtBP suppresses the pro-apoptotic and epithelial genes, therefore overexpressed CtBP in human cancer cells increases EMT and cancer survival; 2) decreasing CtBP's function represents a targeted therapy for lung cancer and potentially multiple cancer types. As a co-repressor, CtBP binds to E1A and other transcription factors through a conserved peptide motif to carry out its action. Inhibiting this interaction using small molecules can potentially serve as effective cancer therapeutics.
To this end, we have developed a homogenous AlphaScreen assay targeting the CtBP/E1A interaction. […]
The first step of the 5uL AlphaScreen assay is to dispense assay buffer (50 mM Tris, pH 8.0, 300 mM NaCl, 0.05% BSA, 0.02% Tween 20, 1 mM TCEP) into a Greiner 1536 white solid bottom microtiter plate (789175-F). […] The plate is read using a Perkin Elmer Envision using an AlphaScreen protocol.
On the % scale 0 is the no-effect control and ±100 the full control effect.

Q: With CCC(=O)N(c1ccccc1)C1(COC)CCN(CCc2cccs2)CC1 as the molecule, how does the activity change read?
A: inactive: -3.2%

Q: CCC(=O)N(c1ccccc1)C1(COC)CCN(CCn2nnn(CC)c2=O)CC1 was tested. Which activity change did it give?
A: inactive: 4.72%

Reference: PubChem BioAssay AID651724 (National Center for Advancing Translational Sciences (NCATS), 2012)
